Source: patent US8889708B2 (Boehringer Ingelheim International GmbH, priority 2013, dated 2014)

Chains of the proteins cited; added tags and fusions are not shown. Residues count along the entry.
UniProt P53634, 395-463: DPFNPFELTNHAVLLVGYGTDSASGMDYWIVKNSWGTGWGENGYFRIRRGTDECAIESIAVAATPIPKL
UniProt P53634, 25-134: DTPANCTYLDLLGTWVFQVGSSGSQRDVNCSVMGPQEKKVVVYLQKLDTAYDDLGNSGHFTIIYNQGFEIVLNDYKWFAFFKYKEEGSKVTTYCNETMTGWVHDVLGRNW
UniProt P53634, 231-394: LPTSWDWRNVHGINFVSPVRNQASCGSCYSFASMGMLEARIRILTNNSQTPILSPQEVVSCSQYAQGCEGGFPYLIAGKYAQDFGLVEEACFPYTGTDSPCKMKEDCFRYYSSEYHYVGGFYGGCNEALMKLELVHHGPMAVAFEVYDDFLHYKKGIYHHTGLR

Target: recombinant human DPPI (Homo sapiens (Human), UniProt P53634)
Assay: Inhibition of Human DPPI (Cathepsin C)
Type: biochemical
Settings: substrate Gly-Arg-AMC, 30 min room temperature
Source text: Inhibition of Human DPPI (Cathepsin C)
Materials: Microtiterplates (Optiplate-384 F) were purchased from PerkinElmer (Prod. No. 6007270). The substrate Gly-Arg-AMC was from Biotrend (Prod.-No. 808756 Custom peptide). Bovine serum albumin (BSA; Prod. No. A3059) and Dithiothreitol (DTT; Prod. No D0632) were from Sigma. TagZyme buffer was from Riedel-de-Haen (Prod.-No. 04269), NaCl was from Merck (Prod.-No. 1.06404.1000) and morpholinoethane sulfonic acid (MES), was from Serva (Prod.-No. 29834). The DPP1 inhibitor Gly-Phe-DMK was purchased from MP Biomedicals (Prod.-No. 03DK00625). The recombinant human DPPI was purchased from Prozymex. All other materials were of highest grade commercially available.
The following buffers were used: MES buffer: 25 mM MES, 50 mM NaCl, 5 mM DTT, adjusted to pH 6.0, containing 0.1% BSA; TAGZyme Buffer: 20 mM NaH2PO4, 150 mM NaCl adjusted to pH 6.0 with HCl […]
Five uL test compound (final concentration 0.1 nM to 100 μM) in aqua bidest (containing 4% DMSO, final DMSO concentration 1%) were mixed with 10 μL of DPPI in MES buffer (final concentration 0.0125 ng/μL) and incubated for 10 min. […] The fluorescence in the wells was determined using a Molecular Devices SpectraMax M5 Fluorescence Reader (Ex 360 nm, Em 460 nm) or an Envision Fluorescence Reader (Ex 355 nm, Em 460 nm). […]

pIC50: 5.84
Compound: CN1Cc2cc(-c3ccc(C[C@@H](C#N)NC(=O)[C@]45CC[C@@H](CN4)C5)cc3)ccc2C1=O [Example 17]

pIC50: −log10 of the molar value.
